Measured values reported in patent publication US20170151264A1, “COMBINATION” (Almirall, S.A., priority 2014, published 2017).

The chains behind the UniProt entries cited, without tags or fusion partners. Where a name states a change or a piece, a line headed by the entry shows the natural chain unless it says otherwise.
UniProt O00329: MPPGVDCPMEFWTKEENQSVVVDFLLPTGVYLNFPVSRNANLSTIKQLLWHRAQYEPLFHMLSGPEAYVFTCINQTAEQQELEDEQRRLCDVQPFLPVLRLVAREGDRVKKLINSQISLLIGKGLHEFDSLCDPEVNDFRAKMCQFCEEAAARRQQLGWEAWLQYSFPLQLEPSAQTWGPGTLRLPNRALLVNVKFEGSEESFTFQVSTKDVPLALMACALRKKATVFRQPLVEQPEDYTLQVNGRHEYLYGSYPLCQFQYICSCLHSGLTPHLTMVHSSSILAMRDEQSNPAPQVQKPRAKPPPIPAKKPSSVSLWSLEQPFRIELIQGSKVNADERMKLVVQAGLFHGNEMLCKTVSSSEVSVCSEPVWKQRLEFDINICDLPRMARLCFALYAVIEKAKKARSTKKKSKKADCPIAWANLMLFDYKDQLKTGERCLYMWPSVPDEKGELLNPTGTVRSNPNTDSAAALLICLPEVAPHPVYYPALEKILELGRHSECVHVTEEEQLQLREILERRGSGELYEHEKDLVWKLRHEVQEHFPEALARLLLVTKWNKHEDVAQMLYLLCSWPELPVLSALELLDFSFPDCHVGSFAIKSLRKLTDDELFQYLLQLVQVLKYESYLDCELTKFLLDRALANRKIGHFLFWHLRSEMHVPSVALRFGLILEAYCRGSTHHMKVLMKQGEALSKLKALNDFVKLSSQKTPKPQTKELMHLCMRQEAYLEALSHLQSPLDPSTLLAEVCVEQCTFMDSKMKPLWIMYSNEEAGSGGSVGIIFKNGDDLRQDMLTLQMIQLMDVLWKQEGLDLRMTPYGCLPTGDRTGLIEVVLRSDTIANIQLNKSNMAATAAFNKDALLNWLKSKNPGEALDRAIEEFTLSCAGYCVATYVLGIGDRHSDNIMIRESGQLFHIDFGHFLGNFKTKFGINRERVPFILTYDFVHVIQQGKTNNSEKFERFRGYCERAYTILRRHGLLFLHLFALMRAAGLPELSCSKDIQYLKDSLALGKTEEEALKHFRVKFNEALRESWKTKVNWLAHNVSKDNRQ

Target: PI3K p110δ (Homo sapiens, UniProt O00329)
Assay: Enzymatic potency by homogenous time-resolved fluorescence
Format: biochemical
Settings: recombinant human isoform, pre-incubation 30 min

C[C@H](Nc1ncnc(N)c1C#N)c1nn2ccc(C#N)c2c(=O)n1-c1ccccc1 [LAS191954, (S)-2-(1-(6-amino-5-cyanopyrimidin-4-ylamino)ethyl)-4-oxo-3-phenyl-3,4-dihydropyrrolo[1,2-f][1,2,4]triazine-5-carbonitrile]
IC50: 2.57 nM
